From patent US4818772A, “Derivatives of 4-aminoethoxy-5-isopropyl-2-methylbenzenes: methods of synthesis and utilization as medicines” (Societe Cortial S.A., priority 1981, dated 1989)

Tested on: unwashed human platelets
Assay: Prevention of the aggregation of human platelets (plasma rich in platelets)
Format: cell-based
Conditions: Platelet, read-out: I 50 (50% inhibition of platelet aggregation)
Protocol: The studies were carried out with platelets in their natural surroundings (plasma rich in platelets). The inhibiting agent was tested in the presence of four types of aggregating agents (ADP, adrenalin, collagen, arachidonic acid) at various concentrations.
For each case, a dose-response curve was established.

`Clc1ccccc1CN1CCc2sccc2C1` [Ticlopidine, reference compound] was tested, and the IC50 (ADP 1.25μM/l) was 10 µM, the IC50 (ADP 2.5μM/l) was 50 µM and the IC50 (adrenalin 1μM/l) was 37 µM. The IC50 (adrenalin 5μM/l) was 52 µM and the IC50 (collagen 50μg/ml) was over 100 µM.

Like-named read-outs stand apart in the source and are kept apart here.
